Measured values taken from US20070154457A1, “Use of eIF-5A to kill multiple myeloma cells” (Senesco Technologies, Inc., priority 2005, published 2007).
Only a part of the results on these compounds is given; other tests are left out.

Test system: eIF5A1
Assay: Western blot of eIF5A1 expression in RKO cells
Settings: 3 mM
Protocol: Protein for Western blotting was isolated using boiling lysis buffer [2% SDS, 50 mM Tris-HCl (pH 7.4)]. Protein concentrations were determined using the Bicinchoninic Acid Kit (Sigma). For Western blotting, 5 μg of total protein was fractionated on a 12% SDS-polyacrylamide gel and transferred to a polyvinylidene difluoride membrane. The primary antibodies used were anti-eIF5A (BD Transduction Laboratories; mouse IgG) and anti-β-actin (Oncogene; mouse IgM), both at a dilution of 1:20,000 in 5% milk. The secondary antibodies were anti-mouse IgG conjugated to horseradish peroxidase (HRP; Sigma) and anti-mouse IgM-HRP (Oncogene). Antibody-protein complexes were visualized using the enhanced chemiluminescence method (ECL, Amersham Biosciences). Following detection of eIF5A, the blots were stripped according to the protocol provided by the ECL Plus Western blotting detection system and reprobed with anti-β-actin antibody to confirm equal loading.

## Sodium nitroprusside
  eIF5A1 protein expression: upregulate eIF5A1 protein expression
